# OPERA 2.9 data: water solubility values

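The numbers are reported measurements, compiled and curated for the OPERA QSAR suite. A listed value is a point estimate from one report or more. Method and conditions are not stated for these values. A value may pool stereoisomers or salt forms, and the file does not say which form was measured. Some upstream entries may be estimates or bounds without being marked so.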

Solubility in water is on a log10 molar scale (set defined at 25 °C).

The entry for O=C(N/N=C/C=C/c1ccc([N+](=O)[O-])o1)Nc1ccccc1 lists log S -4.088 (log10 mol/L). The entry for NC(=O)Nc1cccc(Br)c1 lists log S -2.541 (log10 mol/L). The entry for CN(C)C(=O)NCC1(C)CC(NC(=O)N(C)C)CC(C)(C)C1 (centres undefined) lists log S -1.894 (log10 mol/L). C[C@H](Cc1ccc(O)c(O)c1)[C@@H](C)Cc1ccc(O)c(O)c1 is reported with log S -4.347 (log10 mol/L). CCc1nc2c(=O)[nH]c(=O)nc-2[nH]c1CC is reported with log S -2.36 (log10 mol/L).

Listed for CCOC(=O)CC[C@@H]1CC[C@H](CCC(=O)OCC)O1: log S -2.657 (log10 mol/L). CC(O)(CCC(C)(O)C(=O)O)C(=O)O (centres undefined) is reported with log S -0.972 (log10 mol/L). Listed for O=[N+]([O-])c1ccccc1CNc1ccccc1: log S -0.702 (log10 mol/L). O=C(NN=Cc1ccc([N+](=O)[O-])o1)c1ccncc1 is reported with log S -3.734 (log10 mol/L). The entry for NC(=O)NC1(N)NC(=O)N=C1N (centres undefined) lists log S -1.838 (log10 mol/L).

Listed for C[C@]12C=CC(=O)N[C@@H]1CC[C@@H]1[C@@H]2CC[C@]2(C)[C@@H](C(=O)Nc3cc(C(F)(F)F)ccc3C(F)(F)F)CC[C@@H]12: log S -5.765 (log10 mol/L). CN(CCO)c1ccc(/N=N/c2c(Cl)cc([N+](=O)[O-])cc2Cl)cc1 has log S -6.37 (log10 mol/L). Nc1ccc2cccc(S(=O)(=O)O)c2c1 has log S -2.571 (log10 mol/L). CCc1c(Br)c(Br)c(Br)c(Br)c1Br is reported with log S -9.24 (log10 mol/L). O=c1[nH]c(=O)n([C@H]2C[C@H](O)[C@@H](CO)O2)cc1F is reported with log S -0.781 (log10 mol/L).

For CCC(CCC(C)C)C(=N)O (centres undefined) the data give log S -2.352 (log10 mol/L). CCCCCCCC/C=C\CCCCCCCC(=O)OCC(COC(=O)CCCCCCC/C=C\CCCCCCCC)OC(=O)CCCCCCC/C=C\CCCCCCCC has log S -7.248 (log10 mol/L). For CCCCCCCCCC(=O)CC(=O)C(=O)O the data give log S -3.083 (log10 mol/L). For CCOC(=O)/C(=C\c1ccc([N+](=O)[O-])cc1)N=CO the data give log S -2.46 (log10 mol/L). CSc1ncnc2nc[nH]c12 is reported with log S -2.335 (log10 mol/L).

Listed for NC(=O)CC(O)(CC(N)=O)C(N)=O: log S -0.845 (log10 mol/L). CC1=C2[C@@H](O)[C@@H]3[C@H](C)C(=O)O[C@@H]3C[C@H](C)[C@H]2CC1=O has log S -1.945 (log10 mol/L). For O=C(O)N1CCN(CCN2CCN(C(=O)O)CC2)CC1 the data give log S -1.178 (log10 mol/L). Nc1ccc([N+](=O)[O-])cc1C(=O)O has log S -2.26 (log10 mol/L). The entry for CC(C)(C)CC(C)(C)c1cc(Cc2cc(C(C)(C)CC(C)(C)C)cc(-n3nc4ccccc4n3)c2O)c(O)c(-n2nc3ccccc3n2)c1 lists log S -7.974 (log10 mol/L).

The entry for CCCCCCCCCC(C)=O lists log S -6.979 (log10 mol/L). CCCCC[C@H](O)/C=C/[C@H]1[C@H](O)CC(=O)[C@@H]1C/C=C\CCCC(=O)O has log S -2.47 (log10 mol/L). For CC(=O)c1ccc(NC(=O)Nc2ccc(C(C)=O)cc2)cc1 the data give log S -3.859 (log10 mol/L). Listed for Cc1ccnc2ccccc12: log S -2.262 (log10 mol/L). The entry for c1ccc2oc(-c3ccc(-c4nc5ccccc5o4)s3)nc2c1 lists log S -7.52 (log10 mol/L).

For O=C(N/N=C/C=C/c1ccc([N+](=O)[O-])o1)c1ccc([N+](=O)[O-])o1 the data give log S -4.341 (log10 mol/L). CCCCCCCCCCCCCCCCCC(=O)CCCCCCCCCCCCCCCCC has log S -7.404 (log10 mol/L). O=C1N[C@H]2NC(=O)N[C@H]2N1 has log S -1.995 (log10 mol/L). O=C(O)C[C@H](NC(=O)CP(=O)(O)O)C(=O)O has log S 0.571 (log10 mol/L). The entry for CC(=O)OCC(=O)[C@@]12OC(C)(C)O[C@@H]1C[C@H]1[C@@H]3C[C@H](F)C4=CC(=O)C=C[C@]4(C)[C@@]3(F)[C@@H](O)C[C@@]12C lists log S -4.469 (log10 mol/L).

O=C1NCCN1CCN1CCC(c2cn(-c3ccc(F)cc3)c3ccc(Cl)cc23)CC1 has log S -4.661 (log10 mol/L). CN(C)c1nc(N)nc(N(C)C)n1 has log S -2.69 (log10 mol/L).

6 of these entries, quoted again:

{"smiles": "CCc1nc2c(=O)[nH]c(=O)nc-2[nH]c1CC", "log S (log10 mol/L)": "-2.36"}
{"smiles": "CCCCC[C@H](O)/C=C/[C@H]1[C@H](O)CC(=O)[C@@H]1C/C=C\\CCCC(=O)O", "log S (log10 mol/L)": "-2.47"}
{"smiles": "O=C(N/N=C/C=C/c1ccc([N+](=O)[O-])o1)c1ccc([N+](=O)[O-])o1", "log S (log10 mol/L)": "-4.341"}
{"smiles": "O=C1NCCN1CCN1CCC(c2cn(-c3ccc(F)cc3)c3ccc(Cl)cc23)CC1", "log S (log10 mol/L)": "-4.661"}
{"smiles": "O=C(O)C[C@H](NC(=O)CP(=O)(O)O)C(=O)O", "log S (log10 mol/L)": "0.571"}
{"smiles": "CCOC(=O)CC[C@@H]1CC[C@H](CCC(=O)OCC)O1", "log S (log10 mol/L)": "-2.657"}

Data: OPERA 2.9 data sets, kmansouri/OPERA on GitHub.